This test concerns the target His-tagged full-length G3BP1 F33W (human), Q13283. In words: pull-down. The conditions noted are these: remark: other sources report otherwise.

These results are taken from PMC9723946.

B1: cytoplasmic activating/proliferation associated protein 1 (Caprin1), endogenous, Q14444 1-709 (natural protein)
chain: MPSATSHSGSGSKSSGPPPPSGSSGSEAAAGAGAAAPASQHPATGTGAVQTEAMKQILGVIDKKLRNLEKKKGKLDDYQERMNKGERLNQDQLDAVSKYQEVTNNLEFAKELQRSFMALSQDIQKTIKKTARREQLMREEAEQKRLKTVLELQYVLDKLGDDEVRTDLKQGLNGVPILSEEELSLLDEFYKLVDPERDMSLRLNEQYEHASIHLWDLLEGKEKPVCGTTYKVLKEIVERVFQSNYFDSTHNHQNGLCEEEEAASAPAVEDQVPEAEPEPAEEYTEQSEVESTEYVNRQFMAETQFTSGEKEQVDEWTVETVEVVNSLQQQPQAASPSVPEPHSLTPVAQADPLVRRQRVQDLMAQMQGPYNFIQDSMLDFENQTLDPAIVSAQPMNPTQNMDMPQLVCPPVHSESRLAQPNQVPVQPEATQVPLVSSTSEGYTASQPLYQPSHATEQRPQKEPIDQIQATISLNTDQTTASSSLPAASQPQVFQAGTSKPLHSSGINVNAAPFQSMQTVFNMNAPVPPVNEPETLKQQNQYQASYNQSFSSQPHQVEQTELQQEQLQTVVGTYHGSPDQSHQVTGNHQQPPQQNTGFPRSNQPYYNSRGVSRGGSRGARGLMNGYRGPANGFRGGYDGYRPSFSNTPNSGYTQSQFSAPRDYSGYQRDGYQQNFKRGSGQSGPRGAPRGRGGPPRPNRGMPQMNTQQVN
As for B1, the reduction of copurification relative to WT came out at 98%.
